Measured values from PubChem BioAssay AID434962 (The Scripps Research Institute Molecular Screening Center, 2010).
The list shows a part of the results, in another mix than the full data. Some salts and complexes are drawn in separate pieces, as the source files them; their charges need not balance. The source made the active and inactive calls.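 The calls were made as follows: active = percent inhibition above the average of all tested compounds plus 3 SD, set per screening campaign (cut at about 16% in these data); inactive = the rest.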

The chains behind the UniProt entries cited, without tags or fusion partners.
UniProt P14735, whole entry: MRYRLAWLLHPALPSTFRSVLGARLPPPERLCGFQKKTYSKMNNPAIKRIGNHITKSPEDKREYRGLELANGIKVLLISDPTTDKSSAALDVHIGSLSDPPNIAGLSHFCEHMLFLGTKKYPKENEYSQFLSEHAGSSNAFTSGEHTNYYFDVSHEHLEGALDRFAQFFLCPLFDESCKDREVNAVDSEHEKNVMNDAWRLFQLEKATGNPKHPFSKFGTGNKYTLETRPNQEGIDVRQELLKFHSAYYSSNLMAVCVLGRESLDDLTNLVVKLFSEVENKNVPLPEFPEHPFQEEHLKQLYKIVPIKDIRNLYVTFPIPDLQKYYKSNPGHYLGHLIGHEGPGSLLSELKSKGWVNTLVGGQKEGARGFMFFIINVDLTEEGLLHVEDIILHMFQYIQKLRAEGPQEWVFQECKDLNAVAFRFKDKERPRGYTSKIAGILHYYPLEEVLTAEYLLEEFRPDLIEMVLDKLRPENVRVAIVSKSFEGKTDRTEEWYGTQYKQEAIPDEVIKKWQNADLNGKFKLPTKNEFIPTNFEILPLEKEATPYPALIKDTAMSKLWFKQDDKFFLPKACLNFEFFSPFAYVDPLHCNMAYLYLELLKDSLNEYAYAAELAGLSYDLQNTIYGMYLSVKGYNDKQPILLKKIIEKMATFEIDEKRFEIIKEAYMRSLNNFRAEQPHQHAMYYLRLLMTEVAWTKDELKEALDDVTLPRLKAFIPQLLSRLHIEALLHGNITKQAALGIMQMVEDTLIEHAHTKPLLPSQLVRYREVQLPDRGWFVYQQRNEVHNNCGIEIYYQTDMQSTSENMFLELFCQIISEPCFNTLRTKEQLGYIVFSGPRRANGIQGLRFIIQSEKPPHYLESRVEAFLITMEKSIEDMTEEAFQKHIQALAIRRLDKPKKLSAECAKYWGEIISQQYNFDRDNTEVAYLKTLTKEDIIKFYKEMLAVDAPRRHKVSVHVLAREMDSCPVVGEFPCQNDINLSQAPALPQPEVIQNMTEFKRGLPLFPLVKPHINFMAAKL

What follows are molecules tested against Insulin-degrading enzyme (Homo sapiens) (UniProt P14735) (assay: cellular IDE Abeta-cleavage inhibition – fluorescence polarization, HEK cells, FAbetaB substrate, primary screen (AID 434962;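 also: IDE supplied by intact live HEK cells; FP after avidin binding of uncleaved biotin substrate so inhibition keeps polarization high; 0% = DMSO wells and 100% = 60 µM reference IDE inhibitor Ii1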)). Settings: at 5.59 µM, active compounds read high.
`CCOP(C)(=S)SCC(=O)NC(C)(CC)C(=O)O` (stereo not drawn) was tested, and the inhibition was inactive: -0.14%. `CP(=O)(Nc1ccc(SC(F)(F)F)cc1)Oc1ccc(F)cc1` (stereo not drawn) was tested, and the inhibition was inactive: -5.03%. For `Cc1ccccc1NP(C)(=O)Nc1ccccc1C`, the inhibition was inactive: 1.09%. In the case of `CP(=O)(Nc1ccc2c(c1)OCCO2)Oc1ccccc1` (stereo not drawn), the inhibition is reported as inactive: 4.58%. In the case of `CN(C)CCOC(=O)C(O)(c1ccccc1)C1CCCCC1` (stereo not drawn), the inhibition is reported as inactive: 4.5%. `COc1ccc(NP(C)(=O)Oc2ccccc2OC)cc1` (stereo not drawn) was tested, and the inhibition was inactive: 1.92%. In the case of `COc1ccc(OP(C)(=O)Nc2cccc(Br)c2)cc1` (stereo not drawn), the inhibition is reported as inactive: 8.59%. `O=[N+]([O-])c1cc([N+](=O)[O-])c(NCC2CCS(=O)(=O)C2)c([N+](=O)[O-])c1` (stereo not drawn) was tested, and the inhibition was inactive: 0.57%. With `CCOC(=O)c1ccc(NP(C)(=O)Oc2ccc(F)cc2)cc1` (stereo not drawn) the inhibition was inactive: 0.83%. With `COc1ccc(OP(C)(=O)Nc2ccc(SC(F)(F)F)cc2)cc1` (stereo not drawn) the inhibition was inactive: -0.01%. In the case of `CP(=O)(Nc1ccccc1)Oc1ccc(F)cc1` (stereo not drawn), the inhibition is reported as inactive: 0.04%. With `CCCCCOc1ccc(NP(C)(=O)Oc2ccc(Cl)cc2Cl)cc1` (stereo not drawn) the inhibition was inactive: 2.78%. With `O=[N+]([O-])c1cc([N+](=O)[O-])c(OC2CCCCC2O)c([N+](=O)[O-])c1` (stereo not drawn) the inhibition was inactive: -0.23%. In the case of `CCN(CC)CCCOC(=O)C(O)(c1ccccc1)C1CCCCC1` (stereo not drawn), the inhibition is reported as inactive: 3.2%. In the case of `CP(=O)(Nc1ccccc1F)Oc1ccccc1` (stereo not drawn), the inhibition is reported as inactive: 2.02%. For `CC(C)c1ccc(OP(C)(=O)Nc2ccc(SC(F)(F)F)cc2)cc1` (stereo not drawn), the inhibition was inactive: -1.49%. With `COc1ccc2c(c1O)-c1c(O)c(OC)cc3c1[C@H](C2)[N+](C)(C)CC3.O=[N+]([O-])c1cc([N+](=O)[O-])c([O-])c([N+](=O)[O-])c1[O-]` the inhibition was inactive: 1.23%. `O=C(OC1CN2CCC1CC2)c1ccc([N+](=O)[O-])cc1` (stereo not drawn) was tested, and the inhibition was inactive: -0.99%. `O=C(OCCN1CCN(CCOCc2ccccc2)CC1)C(O)(c1ccccc1)c1ccccc1` was tested, and the inhibition was inactive: 3.42%. For `COc1ccc(OP(C)(=O)Nc2ccccn2)cc1` (stereo not drawn), the inhibition was inactive: -5.93%. With `CN(C)CCOC(=O)C(O)(c1ccccc1)C1CCCC1` (stereo not drawn) the inhibition was inactive: -0.28%. For `COc1ccccc1OP(C)(=O)Nc1ccc(Br)cc1` (stereo not drawn), the inhibition was inactive: 0.89%. With `CP(=O)(Nc1ccccn1)Oc1ccccc1` (stereo not drawn) the inhibition was inactive: -0.95%. In the case of `COc1ccccc1OP(C)(=O)Nc1ccc(C)cc1C` (stereo not drawn), the inhibition is reported as inactive: -2.89%. For `CCc1ccc(OP(C)(=O)O)cc1`, the inhibition was inactive: 0.06%. With `O=[N+]([O-])c1cc([N+](=O)[O-])c(Nc2ccccn2)c([N+](=O)[O-])c1` the inhibition was inactive: 3.38%. For `Cc1c(NP(C)(=O)Oc2ccc(C(C)C)cc2)c(=O)n(-c2ccccc2)n1C` (stereo not drawn), the inhibition was inactive: -1.69%. For `COc1ccccc1OP(C)(=O)Nc1ccc(C)c(C)c1` (stereo not drawn), the inhibition was inactive: 0.58%. With `COc1ccc(OP(C)(=O)Nc2ccccc2Br)cc1` (stereo not drawn) the inhibition was inactive: 1.58%. For `Cc1cc(C)cc(OP(C)(=O)Nc2cccc(C(F)(F)F)c2)c1` (stereo not drawn), the inhibition was inactive: 0.33%. For `CP(=O)(OCCOc1ccccc1)OCCOc1ccccc1`, the inhibition was inactive: 8.17%. `CP(=O)(Nc1ccc(Cl)cc1Cl)Oc1ccccc1` (stereo not drawn) was tested, and the inhibition was inactive: 0.96%. `Cc1nc2ccc3ccccc3c2o1.O=[N+]([O-])c1cc([N+](=O)[O-])c(O)c([N+](=O)[O-])c1` was tested, and the inhibition was inactive: 8.65%. For `CCOC(=O)c1ccc(NP(C)(=O)Oc2ccc(Cl)cc2)cc1` (stereo not drawn), the inhibition was inactive: 5.27%. `CP(=O)(OC12CC3CC(CC(C3)C1)C2)OC12CC3CC(CC(C3)C1)C2` was tested, and the inhibition was inactive: -1.43%. `Nc1ccc2c(ccc3cccnc32)n1.O=[N+]([O-])c1cc([N+](=O)[O-])c(O)c([N+](=O)[O-])c1` was tested, and the inhibition was inactive: 1.76%. For `COc1ccccc1OP(C)(=O)Nc1c(C)n(C)n(-c2ccccc2)c1=O` (stereo not drawn), the inhibition was inactive: 5.52%. `O=C(OCCCN1CCCC1)C(O)(c1ccccc1)C1CCCCC1` (stereo not drawn) was tested, and the inhibition was inactive: 5.77%. `CP(=O)(Oc1ccccc1)N1CCOC1=O` (stereo not drawn) was tested, and the inhibition was inactive: 4.78%. `CCc1ccc(OP(C)(=O)Nc2cccnc2)cc1` (stereo not drawn) was tested, and the inhibition was inactive: 1.9%. In the case of `CCN(CC)CC(O)COC(=O)C(O)(c1ccccc1)C1CCCCC1` (stereo not drawn), the inhibition is reported as inactive: 3.19%. `COc1ccc(OP(C)(=O)Nc2ccc(Br)cc2)cc1` (stereo not drawn) was tested, and the inhibition was inactive: 0.33%. In the case of `CN(C)C(=O)c1c([N+](=O)[O-])cc([N+](=O)[O-])cc1[N+](=O)[O-]`, the inhibition is reported as inactive: 7.49%. `CC(C)(C)c1ccc(OP(C)(=O)O)cc1` was tested, and the inhibition was inactive: -1.33%. With `COc1ccccc1OP(C)(=O)Nc1ccccc1Br` (stereo not drawn) the inhibition was inactive: 3.72%. With `CP(=O)(Nc1ccc(Cl)cc1)Oc1ccc(F)cc1` (stereo not drawn) the inhibition was inactive: -0.31%. For `CCc1ccc(OP(C)(=O)N2CCN(c3ccc([N+](=O)[O-])cc3)CC2)cc1` (stereo not drawn), the inhibition was inactive: 2.76%. `CP(=O)(NC(=O)Nc1ccccc1)Oc1ccccc1` (stereo not drawn) was tested, and the inhibition was inactive: -1.41%. In the case of `Cc1cc(C)cc(OP(C)(=O)Nc2ccc(SC(F)(F)F)cc2)c1` (stereo not drawn), the inhibition is reported as inactive: -0.18%. `CP(=O)(Nc1ccc(SC(F)(F)F)cc1)Oc1ccc(Cl)cc1` (stereo not drawn) was tested, and the inhibition was inactive: 3.72%. `Cc1cccc(C)c1OP(C)(=O)Nc1ccc(SC(F)(F)F)cc1` (stereo not drawn) was tested, and the inhibition was inactive: 3.69%. In the case of `CP(=O)(Oc1ccccc1)OC(c1ccccc1)C(F)(F)F` (stereo not drawn), the inhibition is reported as inactive: 9.97%. `CP(=O)(Nc1ccccn1)Oc1ccc(Cl)cc1` (stereo not drawn) was tested, and the inhibition was inactive: 1.27%. `O=[N+]([O-])c1cc([N+](=O)[O-])c(O)c([N+](=O)[O-])c1.c1ccc(Oc2ccncc2)cc1` was tested, and the inhibition was inactive: 8.08%. In the case of `CCOC(=O)c1ccc(NP(C)(=O)Oc2ccc(OC)cc2)cc1` (stereo not drawn), the inhibition is reported as inactive: -1.4%. In the case of `CCOP(C)(=S)SCC(=O)NC(C)C(=O)O` (stereo not drawn), the inhibition is reported as inactive: 2.03%. `CP(=O)(Nc1ccccc1Br)Oc1ccccc1` (stereo not drawn) was tested, and the inhibition was inactive: -0.02%. With `COc1ccccc1OP(C)(=O)Nc1ccccc1` (stereo not drawn) the inhibition was inactive: 3.28%. In the case of `CP(=S)(Nn1cnnc1)Oc1ccccc1` (stereo not drawn), the inhibition is reported as inactive: 2.64%. With `O=[N+]([O-])c1ccc2c(c1)C=Nc1ccccc1O2` the inhibition was inactive: -3.98%. With `CC(C)(C)c1ccc(OP(C)(=O)Nc2ccc(SC(F)(F)F)cc2)cc1` (stereo not drawn) the inhibition was inactive: -0.18%. With `Cc1cccc(C)c1OP(C)(N)=O` (stereo not drawn) the inhibition was inactive: 3.33%. With `O=[N+]([O-])c1cc([N+](=O)[O-])c(Nc2cccnc2)c([N+](=O)[O-])c1` the inhibition was inactive: 2%. In the case of `Cc1cc(C)cc(OP(C)(N)=O)c1` (stereo not drawn), the inhibition is reported as inactive: -1.31%. For `COc1ccccc1OP(C)(=O)Nc1cc(Cl)ccc1C` (stereo not drawn), the inhibition was inactive: -2.51%. `COc1ccc(OP(C)(=O)Nc2cccc(F)c2)cc1` (stereo not drawn) was tested, and the inhibition was inactive: 10.8%. For `COc1ccccc1OP(C)(=O)Nc1ccc(C)cc1` (stereo not drawn), the inhibition was inactive: -0.07%. With `Cc1ccc(NP(C)(=O)Oc2ccccc2)c(C)c1` (stereo not drawn) the inhibition was inactive: 3.06%. `CCOC(=O)c1ccc(NP(C)(=O)Oc2ccccc2)cc1` (stereo not drawn) was tested, and the inhibition was inactive: 1.79%. `CCN(CC)CCCOC(=O)C(O)(c1ccccc1)c1ccccc1` was tested, and the inhibition was inactive: 6.1%. In the case of `CCOC(=O)c1ccc(NP(C)(=O)Oc2cc(C)cc(C)c2)cc1` (stereo not drawn), the inhibition is reported as inactive: 4.73%. With `Cc1cc(C)cc(OP(C)(=O)Nc2ccc(C)cc2C)c1` (stereo not drawn) the inhibition was inactive: -0.81%. `COc1ccccc1OP(C)(=O)Nc1cccc(Br)c1` (stereo not drawn) was tested, and the inhibition was inactive: 1.64%. With `Cc1ccc(C)c(NP(C)(=O)Oc2ccccc2)c1` (stereo not drawn) the inhibition was inactive: 2.7%. For `CP(=O)(Nc1cccc(Br)c1)Oc1ccccc1` (stereo not drawn), the inhibition was inactive: -5.28%. For `Cc1cc(C)cc(OP(C)(=O)Nc2ccccn2)c1` (stereo not drawn), the inhibition was inactive: 1.01%. For `O=C(O)c1cccc(Nc2c([N+](=O)[O-])cc([N+](=O)[O-])cc2[N+](=O)[O-])c1`, the inhibition was inactive: 1.71%. With `CC1=NCCc2c1[nH]c1ccccc21.O=[N+]([O-])c1cc([N+](=O)[O-])c(O)c([N+](=O)[O-])c1` the inhibition was inactive: -9.87%. For `O=[N+]([O-])c1cc([N+](=O)[O-])c(Nc2nnnn2CCO)c([N+](=O)[O-])c1`, the inhibition was inactive: -2.15%. With `CC1=C2N=C(C=C3N=C(C(C)=C4[N-][C@@](C)([C@@H]5N=C1[C@](C)(CCC(=O)NC[C@@H](C)OP(=O)([O-])O[C@H]1[C@@H](O)[C@@H](n6cnc7cc(C)c(C)cc76)O[C@@H]1CO)[C@H]5CC(N)=O)[C@@](C)(CC(N)=O)[C@@H]4CCC(N)=O)[C@@](C)(CC(N)=O)[C@@H]3CCC(N)=O)C(C)(C)[C@@H]2CCC(N)=O.[C-]#N.[Co+3]` the inhibition was inactive: 3.83%. In the case of `CCOC(=O)C(CC)C1=NC(C)(C)Cc2ccccc21.O=[N+]([O-])c1cc([N+](=O)[O-])c(O)c([N+](=O)[O-])c1` (stereo not drawn), the inhibition is reported as inactive: -0.95%. `CP(=O)(Nc1ccc(SC(F)(F)F)cc1)Oc1ccccc1` (stereo not drawn) was tested, and the inhibition was inactive: 0.68%. With `CCCOc1ccc(NP(C)(=O)Oc2ccc(Cl)cc2)cc1` (stereo not drawn) the inhibition was inactive: 1.91%. `CN1CCCCC1COC(=O)C1(O)c2ccccc2CCc2ccccc21` (stereo not drawn) was tested, and the inhibition was inactive: -0.14%. With `COc1ccccc1OP(C)(=O)Nc1c(C)cccc1C` (stereo not drawn) the inhibition was inactive: -5.13%. For `O=[N+]([O-])c1cc([N+](=O)[O-])c(-n2nnc3ccccc32)c([N+](=O)[O-])c1`, the inhibition was inactive: -3.25%. For `Cc1nc2ccc3ccccc3c2s1.O=[N+]([O-])c1cc([N+](=O)[O-])c(O)c([N+](=O)[O-])c1`, the inhibition was inactive: 1.08%. `O=[N+]([O-])c1cc([N+](=O)[O-])c(-c2cnn(-c3ccccc3)c2)c([N+](=O)[O-])c1` was tested, and the inhibition was inactive: 1.29%.
